The values that follow are results of earlier work, collected in patent US6375634B1, “APPARATUS AND METHOD TO ENCAPSULATE, KILL AND REMOVE MALIGNANCIES, INCLUDING SELECTIVELY INCREASING ABSORPTION OF X-RAYS AND INCREASING FREE-RADICAL DAMAGE TO RESIDUAL TUMORS TARGETED BY IONIZING AND NON-IONIZING RADIATION THERAPY” (Oncology Innovations, Inc., priority 1997, dated 2002).

Read-outs that look alike come from different tables or passages of the source.

The series deals with angiogenesis. The settings on record: mouse model, cited from earlier work.

B1: interferon beta: interferon that physiologically opposes proangiogenic factors (protein, UniProt P01574 22-187, looked up)
Interferon beta: MSYNLLGFLQRSSNFQCQKLLWQLNGRLEYCLKDRMNFDIPEEIKQLQQFQKEDAALTIYEMLQNIFAIFRQDSSSTGWNETIVENLLANVYHQINHLKTVLEEKLEKEDFTRGKLMSSLHLKRYYGRILHYLKAKEYSHCAWTIVRVEILRNFYFINRLTGYLRN
Regarding B1, the effect on angiogenesis result (continuous low levels, 5,000 to 10,000 units) is “blocks angiogenesis” and the effect on angiogenesis result (higher interferon levels) is given as “ineffective”.
